Laboratory results: US8269010B2, “3-amino-pyridine derivatives for the treatment of metabolic disorders” (Piramal Healthcare Limited, priority 2006, dated 2012)

The chains behind the UniProt entries cited, without tags or fusion partners.
UniProt P37238, whole entry: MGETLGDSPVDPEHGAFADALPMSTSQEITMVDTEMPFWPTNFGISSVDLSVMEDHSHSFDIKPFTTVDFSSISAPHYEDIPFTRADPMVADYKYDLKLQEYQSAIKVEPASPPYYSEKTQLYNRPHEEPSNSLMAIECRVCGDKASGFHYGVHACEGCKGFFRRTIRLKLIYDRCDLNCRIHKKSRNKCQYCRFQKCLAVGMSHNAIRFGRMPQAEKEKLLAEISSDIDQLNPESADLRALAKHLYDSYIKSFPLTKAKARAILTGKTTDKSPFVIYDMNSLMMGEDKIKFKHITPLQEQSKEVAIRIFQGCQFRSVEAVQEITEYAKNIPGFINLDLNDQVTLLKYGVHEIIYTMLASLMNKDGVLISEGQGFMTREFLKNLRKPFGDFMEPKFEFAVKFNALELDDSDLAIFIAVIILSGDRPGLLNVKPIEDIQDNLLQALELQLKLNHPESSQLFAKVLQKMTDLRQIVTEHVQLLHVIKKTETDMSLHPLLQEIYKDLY

Biological target: T1, Mouse PPARγ (Mus musculus, UniProt P37238)
T1 construct: endogenous in cells; host or cells: 3T3-L1 fibroblasts
Test: Mouse PPARγ assay (TransAM PPARγ ELISA, 3T3-L1 fibroblasts)
Format: cell-based
Conditions: Rosiglitazone 10 μM, 72 hrs
Description: The assay was designed as in the reference, Blood, 104(5), 1361-8, 2004, the disclosure of which is incorporated by reference for the teaching of the assay.
3T3-L1 fibroblasts were seeded in 6-well plates at a density of 4×10^4 cells/well and cultured in DMEM containing 10% calf serum. After 4-5 days, when the cells become confluent, each of test compound was added (from a 20 mM stock in DMSO) to the final concentration of 50 μM in DMEM supplemented with 10% FCS. […] The plates were incubated for 72 hrs at 37° C. in a CO2 incubator with fresh medium containing test substances added after first 48 hrs. After 72 hrs, the medium was removed; the cell layer was washed and processed for the PPARγ assay as per the instruction of the manufacturer (Active Motif, North America, California, USA). PPARγ activation was determined using 96-well ELISA assay as per the instruction manual (TransAM PPARγ. Active Motif, Cat 0.40196). Assay Readout was absorbance output from spectrophotometer for the mouse PPARγ assay. Luminescence data output was recorded for the human PPARγ assay.

CN(CCOc1ccc(CC2SC(=O)NC2=O)cc1)c1ccccn1 (stereo not shown) [Rosiglitazone, reference compound]
PPARγ activity (% of rosiglitazone): 100%
